The values that follow come from PubChem BioAssay AID1229 (Sanford-Burnham Center for Chemical Genomics, 2008).

The other results are listed elsewhere or left out. The source made the active and inactive calls.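 Rule for the calls: active = diaphorase activity raised at least twofold by the compound at 20 µM; inactive = activation factor below 2.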

The nature of the assay: compounds boosting diaphorase resazurin reduction – biochemical, uHTS, resorufin fluorescence, counter-screen for diaphorase-coupled primary assays, primary screen (AID 1229). Conditions: Diaphorase/resazurin coupled assay, 16 min, at 20 µM, hits give high values, 1 = vehicle wells, 0 = NADH-free wells. A digest of the protocol: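 Material: Clostridium kluyveri diaphorase, purified enzyme; Quantity: enzyme 0.07 U/mL final; Medium: HEPES pH 7.4 buffer with MgCl2 and Tween 20; Dosing: single compound dose of 20 µM, 1% DMSO final; Schedule: 16 min reaction at room temperature; Measured by: red resorufin fluorescence at 544/590 nm excitation/emission.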
With `CCN(N=Nc1nonc1N)c1nonc1N`, the activation factor was inactive: 0.8.

`Cc1cc(SC(NC(=O)c2ccc(F)cc2)C(Cl)(Cl)Cl)ncn1` (stereo not drawn): the activation factor is inactive: 0.7.

Turning to `Cc1c2non([O-])c-2c(C)[n+](=O)[n+]1[O-]`, the activation factor is inactive: 0.5.

As to `O=C(NC(Sc1ccncn1)C(Cl)(Cl)Cl)c1ccccc1` (stereo not drawn), the activation factor is inactive: 0.7.

On to `Oc1ccccc1CNc1ccccn1`, for which the activation factor was inactive: 1.

Regarding `CC(C)CC(=O)NC(Sc1ccc(Cl)cc1)C(Cl)(Cl)Cl` (stereo not drawn), the activation factor is inactive: 1.

As to `Clc1ccc(Cl)c(NC2=NCC(CBr)S2)c1` (stereo not drawn), the activation factor is inactive: 1.1.

Take `CN1CCCC(OC(=O)C(c2ccccc2)c2ccccc2)C1` (stereo not drawn): the activation factor is inactive: 1.

As for `Cc1ccc(N/C(=N/P(=O)(N2CCOCC2)N2CCOCC2)N2CCOCC2)cc1`, the activation factor is inactive: 1.

Turning to `NC(=O)c1cc([N+](=O)[O-])cc([N+](=O)[O-])c1N`, the activation factor was inactive: 1.1.

With `CC1CCN(C(=O)Oc2c(Cl)cc(Cl)c3cccnc23)CC1`, the activation factor is inactive: 1.

For `CN(C)C(=O)OCCc1n(C)cc[n+]1C`, the activation factor is inactive: 1.

Consider `CC(C)=N/N=C(\N)N[N+](=O)[O-]`, for which the activation factor was inactive: 1.2.

On to `CCN(/C(=N/P(=O)(N1CCOCC1)N1CCOCC1)N1CCOCC1)c1ccc(OC)cc1`, for which the activation factor is inactive: 1.

`CCc1nc2c(n1)c1c(non1O)c1c2no[n+]1[O-]`: the activation factor is inactive: 0.3.

In the case of `O=[N+]([O-])c1cc([N+](=O)[O-])c(CCNc2ccccc2)c([N+](=O)[O-])c1`, the activation factor was inactive: 0.8.

As to `O=[N+]([O-])c1cccc2n[nH]nc12`, the activation factor is inactive: 1.

Turning to `COc1ccc(C2=NCC(CBr)S2)cc1` (stereo not drawn), the activation factor was inactive: 1.2.

For `O=[N+]([O-])c1ncn(CCn2ncnc2[N+](=O)[O-])n1`, the activation factor is inactive: 1.

As to `O=C(OC1CN2CCC1CC2)c1cccc(Cl)c1` (stereo not drawn), the activation factor was inactive: 1.

For the compound `C(Cc1nn[nH]n1)Cc1nn[nH]n1`, the activation factor was inactive: 1.

In the case of `O=P(Nc1ccccn1)(c1ccc(Br)cc1)c1ccc(Br)cc1`, the activation factor is inactive: 1.

As for `O=P(Nc1nccs1)(c1ccccc1)c1ccccc1`, the activation factor is inactive: 1.

On to `CC(=O)Nc1ccc(Oc2c([N+](=O)[O-])cc([N+](=O)[O-])cc2[N+](=O)[O-])cc1`, for which the activation factor was inactive: 1.

For `CCOc1ccc(C2=NCC(CBr)S2)cc1` (stereo not drawn), the activation factor was inactive: 1.1.

With `O=c1c2cc([N+](=O)[O-])ccc2[nH]c2c([N+](=O)[O-])cc([N+](=O)[O-])cc12`, the activation factor is inactive: 0.7.

With `c1ccc(-c2nn[nH]n2)c(-c2nn[nH]n2)c1`, the activation factor was inactive: 1.2.

With `O=C(NC1CCS(=O)(=O)C1)NP(=S)(Oc1ccccc1)Oc1ccccc1` (stereo not drawn), the activation factor is inactive: 0.8.

`O=P(Nc1nccs1)(Oc1ccccc1)Oc1ccccc1`: the activation factor was inactive: 1.

With `COc1cc(C2NCCC3(OCCO3)C2(C)C)cc(OC)c1OC` (stereo not drawn), the activation factor is inactive: 0.8.

In the case of `Cc1ccc(NCCc2c([N+](=O)[O-])cc([N+](=O)[O-])cc2[N+](=O)[O-])cc1`, the activation factor was inactive: 0.6.

With `CC(C)/C=N\N=C(\N)N[N+](=O)[O-]`, the activation factor was inactive: 1.

Regarding `CN(C(=O)Cc1ccc(Cl)c(Cl)c1)[C@@H]1CCCC[C@H]1N1CCCC1`, the activation factor was inactive: 0.8.

Turning to `Clc1n[nH]nc1-c1nn[nH][15n]1`, the activation factor was inactive: 0.8.

With `O=P1(Nc2ccc(Br)cn2)COc2ccccc2OC1`, the activation factor is inactive: 1.1.

As to `O=P1(Nc2ncccn2)COc2ccccc2OC1`, the activation factor was inactive: 1.

Take `CC1CCC(C(C)C)C(OP(=O)(Nc2ccccn2)c2ccccc2)C1` (stereo not drawn): the activation factor is inactive: 1.

Take `Cc1nn(-c2ccccc2)c2c1P(=O)(N1CCOCC1)N(C)C(c1ccccc1)=N2` (stereo not drawn): the activation factor is inactive: 0.8.

As to `O=P(Nc1ccccn1)(c1cccc2ccccc12)c1cccc2ccccc12`, the activation factor is inactive: 0.7.

With `Cc1cc(SC(NC=O)C(Cl)(Cl)Cl)ncn1` (stereo not drawn), the activation factor was inactive: 1.

`CCC(C)N(CC(C)C)C(=S)SC(NC(C)=O)C(Cl)(Cl)Cl` (stereo not drawn): the activation factor was inactive: 1.1.

As for `COP1(=S)c2c(C)nn(CCC#N)c2N=C(c2ccc(F)cc2)N1C` (stereo not drawn), the activation factor was inactive: 1.1.

Turning to `COc1ccc(N/C(=N/P(=O)(N2CCOCC2)N2CCOCC2)N2CCOCC2)cc1`, the activation factor is inactive: 1.

For `Cc1c2c(nc3ccccc13)SC(C(Cl)Cl)C2` (stereo not drawn), the activation factor is inactive: 0.8.

In the case of `Cc1cc(=O)[nH]c(N[N+](=O)[O-])n1`, the activation factor was inactive: 1.

As for `O=C(OC1CN2CCC1CC2)C12CC3CC(CC(C3)C1)C2` (stereo not drawn), the activation factor was inactive: 1.

Consider `CCN(CC)C(=S)SC(NC=O)C(Cl)(Cl)Cl` (stereo not drawn), for which the activation factor was inactive: 1.

As for `Cc1ccc2nc3c(c(C)c2c1)CC(C(Cl)Cl)S3` (stereo not drawn), the activation factor was inactive: 0.8.
